Reference: US20140350081A1, “INSECT G-COUPLED RECEPTORS USEFUL AS TARGETS FOR INSECTICIDES AND COMPOUNDS AND REAGENTS IDENTIFIED USING THE SAME” (priority 2011, published 2014)

By UniProt entry, the sequences of proteins in these tests, tags left out.
UniProt H6D5H2, entry or part of it: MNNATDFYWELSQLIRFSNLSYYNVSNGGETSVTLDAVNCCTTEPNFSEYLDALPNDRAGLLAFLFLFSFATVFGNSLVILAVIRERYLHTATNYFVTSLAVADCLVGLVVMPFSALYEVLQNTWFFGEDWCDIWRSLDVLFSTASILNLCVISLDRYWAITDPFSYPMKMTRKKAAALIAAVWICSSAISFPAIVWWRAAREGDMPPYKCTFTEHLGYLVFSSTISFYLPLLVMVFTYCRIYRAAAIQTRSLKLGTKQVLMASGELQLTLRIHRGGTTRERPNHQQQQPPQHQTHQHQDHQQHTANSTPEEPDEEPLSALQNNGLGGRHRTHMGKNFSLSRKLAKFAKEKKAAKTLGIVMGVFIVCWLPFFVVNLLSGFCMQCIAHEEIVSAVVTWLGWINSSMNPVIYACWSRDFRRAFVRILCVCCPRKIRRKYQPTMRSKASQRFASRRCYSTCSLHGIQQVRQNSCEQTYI
UniProt P21728, whole entry: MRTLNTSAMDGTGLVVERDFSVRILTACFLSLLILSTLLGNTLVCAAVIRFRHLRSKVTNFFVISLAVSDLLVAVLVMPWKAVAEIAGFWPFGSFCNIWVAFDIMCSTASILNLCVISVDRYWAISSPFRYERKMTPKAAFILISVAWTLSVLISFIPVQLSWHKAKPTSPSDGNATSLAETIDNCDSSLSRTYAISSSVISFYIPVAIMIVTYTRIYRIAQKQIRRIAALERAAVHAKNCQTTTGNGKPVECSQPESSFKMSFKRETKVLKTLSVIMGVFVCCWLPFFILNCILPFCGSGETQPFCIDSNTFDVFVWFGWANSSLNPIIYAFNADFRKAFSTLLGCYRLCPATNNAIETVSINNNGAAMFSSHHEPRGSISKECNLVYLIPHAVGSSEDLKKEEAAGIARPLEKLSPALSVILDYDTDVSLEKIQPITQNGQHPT
UniProt A0ACM8DGL0, entry or part of it: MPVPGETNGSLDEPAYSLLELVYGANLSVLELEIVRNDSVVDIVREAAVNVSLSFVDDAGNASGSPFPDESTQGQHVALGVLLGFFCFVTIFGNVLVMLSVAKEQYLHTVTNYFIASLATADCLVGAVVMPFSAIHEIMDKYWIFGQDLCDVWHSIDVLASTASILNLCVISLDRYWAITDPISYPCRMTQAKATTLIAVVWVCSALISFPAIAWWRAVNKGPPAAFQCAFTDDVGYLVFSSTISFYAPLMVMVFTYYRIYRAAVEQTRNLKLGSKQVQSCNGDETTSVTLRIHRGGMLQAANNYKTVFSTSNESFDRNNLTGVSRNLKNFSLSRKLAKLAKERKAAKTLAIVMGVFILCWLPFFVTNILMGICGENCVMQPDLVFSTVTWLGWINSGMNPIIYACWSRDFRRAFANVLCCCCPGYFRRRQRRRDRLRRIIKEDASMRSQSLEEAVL

What was measured:
[1] = target: T1, AaDOP2 (Aedes aegypti, UniProt H6D5H2); assay: LOPAC1280 antagonist screen in HEK-CRELuc-Aadop2 cells; type: cell-based
[2] = target: T2, human D1 dopamine receptor (hD1) (Homo sapiens, UniProt P21728); assay: cAMP accumulation secondary assay, hD1-expressing cells; type: cell-based, H. sapiens; conditions: read-out: IC50 value (at 100 nM dopamine for hD1), direct cAMP accumulation
T2 construct: expressed in transfected cells

[3] = target: T1, AaDOP2
[4] = target: Isdop2 (Ixodes scapularis, UniProt A0ACM8DGL0); assay: cell-based
[5] = target: T1, AaDOP2; assay: HTRF cAMP accumulation concentration response assay (Cisbio Dynamic 2); type: cell-based; conditions: IC50 ± S.E.M. (nM)
[6] = target: T1, AaDOP2; assay: cell-based
[7] = 10 μM compound, 300 nM dopamine, quadruplicate

## Cc1nc2n(c(=O)c1CCN1CCC(c3noc4cc(F)ccc34)CC1)CCCC2 [Risperidone, 4-[2-[4-(6-fluorobenzo[d]isoxazol-3-yl)-1-piperidyl]ethyl]-3-methyl-2,6-diazabicyclo[4.4.0]deca-1,3-dien-5-one]
[1]
  % inhibition of DA activity (Aedes cell-based assay screen): 83%
  % of the SCH23390 effect: 83%

## (±)-Butaclamol hydrochloride
[1]
  % of the SCH23390 effect: 81%

## OCCN1CCN(CC/C=C2/c3ccccc3Sc3ccc(C(F)(F)F)cc32)CC1 [cis-(Z)-Flupenthixol, ((Z)-2-(4-(3-(2-(trifluoromethyl)-9H-thioxanthen-9-ylidene)propyl)piperazin-1-yl)ethanol)]
[2]
  IC50: 0.011 µM
[3]
  Relative fold selectivity for AaDOP2 vs. hD1: 0.55 fold

## OCCN1CCN(CCCN2c3ccccc3Sc3ccc(C(F)(F)F)cc32)CC1 [Fluphenazine, 2-[4-[3-[2-(trifluoromethyl)-10H-phenothiazin-10-yl]propyl]piperazin-1-yl]ethanol]
[1]
  % inhibition of DA activity (Aedes cell-based assay screen): 82%
  % of the SCH23390 effect: 82%

## CC(CN1c2ccccc2Sc2ccccc21)N(C)C (racemic) [Promethazine, (RS)-N,N-dimethyl-1-(10H-phenothiazin-10-yl)propan-2-amine]
[4]; read-out: % Inhibition (of response to dopamine), Isdop2 screen
  inhibition at 10 µM: 74%

## CC(C)(C)[C@]1(O)CCN2CC3c4ccccc4CCc4cccc(c43)[C@@H]2C1 (single isomer, unassigned; (+)) [(+)-Butaclamol, 3-(1,1-dimethylethyl)-2,3,4,4a,8,9,13b,14-octahydro-1H-benzo[6,7]cyclohepta[1,2,3-de]pyrido[2,1-a]isoquinolin-3-ol]
[1]; [7]
  % of the SCH23390 effect: 87%
[1]; LOPAC1280 screen hits
  % inhibition of DA activity (Aedes cell-based assay screen): 87%
[5]
  IC50: 190 ± 27 nM
[4]
  % Inhibition (of response to dopamine), Isdop2 screen: 93%
[6]
  IC50: 0.48 ± 0.033 µM

## CN1C2CCC1CC(OC(c1ccccc1)c1ccccc1)C2 (stereo not drawn) [Benztropine, (3-endo)-3-(diphenylmethoxy)-8-methyl-8-azabicyclo[3.2.1]octane]
[1]; [7]
  % of the SCH23390 effect: 89%

Like-named read-outs stand apart in the source and are kept apart here.
